In ChEMBL document CHEMBL1152530, “Fluorinated pyridinium oximes as potential reactivators for acetylcholinesterases inhibited by paraoxon organophosphorus agent” (2009) one finds Activity data, which are given here for 5 compounds.

Set-up in all cases: scale not given: the % may be the effect or the level left
Experiment [1] concerns the target Acetylcholinesterase (Musca domestica) (UniProt Q7YWJ9). Nature of the experiment: Reactivation of diisopropylfluorophosphate-inhibited house fly AChE activity at 5 mM after 30 mins by Ellman's method.
Experiment [2] deals with T1, Acetylcholinesterase (Bos taurus) (UniProt P23795).
T1 sequence (whole entry): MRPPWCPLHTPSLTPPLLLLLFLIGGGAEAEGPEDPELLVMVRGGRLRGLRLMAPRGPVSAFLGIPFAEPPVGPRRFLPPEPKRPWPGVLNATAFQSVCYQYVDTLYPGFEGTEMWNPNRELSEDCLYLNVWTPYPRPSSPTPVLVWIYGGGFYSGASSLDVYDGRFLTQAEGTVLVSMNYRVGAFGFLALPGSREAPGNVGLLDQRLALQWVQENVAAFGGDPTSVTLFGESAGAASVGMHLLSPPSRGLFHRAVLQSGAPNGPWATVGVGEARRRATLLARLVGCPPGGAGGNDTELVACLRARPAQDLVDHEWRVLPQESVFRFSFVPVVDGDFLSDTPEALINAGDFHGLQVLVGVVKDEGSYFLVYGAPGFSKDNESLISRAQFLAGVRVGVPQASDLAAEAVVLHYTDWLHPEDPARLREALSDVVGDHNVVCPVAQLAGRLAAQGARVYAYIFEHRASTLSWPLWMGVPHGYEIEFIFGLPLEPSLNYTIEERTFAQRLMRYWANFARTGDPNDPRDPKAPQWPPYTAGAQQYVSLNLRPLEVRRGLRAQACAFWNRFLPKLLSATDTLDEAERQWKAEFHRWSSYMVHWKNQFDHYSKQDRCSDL
As to the kind of experiment: Reactivation of paraoxon-inhibited AChE activity in bovine red blood cell at 5 mM after 1 hr by Ellman's method. (In general: In Ellman's method for cholinesterases, released thiocholine reacts with DTNB.)

In experiment [3] the target is T1, Acetylcholinesterase (Bos taurus). Nature of the experiment: Reactivation of diisopropylfluorophosphate-inhibited AChE activity in bovine red blood cell at 5 mM after 30 mins by Ellman's method.
Experiment [4] deals with Acetylcholinesterase (Musca domestica) (UniProt Q7YWJ9). Nature of the experiment: Reactivation of paraoxon-inhibited house fly AChE activity at 5 mM after 1 hr by Ellman's method.
For experiment [5], the target named is T1, Acetylcholinesterase (Bos taurus). Nature of the experiment: Reactivation of organophosphate-inhibited AChE activity in bovine red blood cell at 5 mM by Ellman's method.

Consider `NC(=O)c1cc[n+](C/C=C/C[n+]2ccc(/C=N/O)c(F)c2)cc1`, for which the Activity in experiment [1] amounted to 38.6%; in experiment [2], 63.3%; in experiment [3], 63.3%; in experiment [4] it was 38.6%.

Turning to `O/N=C\c1cc[n+](C/C=C/C[n+]2ccc(/C=N/O)cc2)cc1`, the Activity in experiment [1] turned out to be 24.7%; in experiment [2] it was 50.6%; in experiment [3], 50.6%; in experiment [4] it was 24.7%.

For `O/N=C/c1cc[n+](C/C=C/C[n+]2ccc(/C=N/O)c(F)c2)cc1`, the Activity in experiment [1] came out at 42.3%; in experiment [2] it was 54.6%; in experiment [3] it was 54.6%; in experiment [4], 42.3%.

Compound `NC(=O)c1cc[n+](COC[n+]2ccccc2/C=N/O)cc1` had an Activity in experiment [5] of 48.2%.

In the case of `O/N=C/c1cc[n+](C/C=C/C[n+]2ccc(/C=N/O)c(F)c2)cc1F`, the Activity in experiment [1] is 23%; in experiment [2], 49.9%; in experiment [3], 49.9%; in experiment [4], 23%.
